Data published in ChEMBL document CHEMBL1125719, “2-(3,4-Dichlorophenyl)-N-methyl-N-[2-(1-pyrrolidinyl)-1-substituted- ethyl]-acetamides: the use of conformational analysis in the development of a novel series of potent opioid kappa agonists” (1991).
Active and inactive are the calls of the source. The calls are words filed in the database; no cut-off is given here.

Species on record: Mus musculus
Experiment: Molar potency ratio relative to the standard agonist EKC on field-stimulated mouse vas deferens; Not Active

**Q.** How did the “Potency vs EKC” value turn out when `C[C@H](CN1CCCC1)N(C)C(=O)Cc1ccc(Cl)c(Cl)c1` was run?
**A.** inactive

**Q.** `C[C@H]([C@H](C)N(C)C(=O)Cc1ccc(Cl)c(Cl)c1)N1CCCC1` was tested. Which “Potency vs EKC” value did it give?
**A.** inactive

**Q.** How did the “Potency vs EKC” value turn out when `CN(CCN1CCCC1)C(=O)Cc1ccc(Cl)c(Cl)c1` was run?
**A.** inactive
